According to patent US20200002670A1, “Generation of Endocrine Progenitor Cells from Human Pluripotent Stem Cells Using Small Molecules” (Novo Nordisk A/S, priority 2013, published 2020):
“And” between values parts separate entries of the source, which are not always exact repeats. Equal entries are not always repeated.

System: pancreatic endoderm cells
Experiment: NGN3/NKX2.2 double positive cells by immunostaining and InCell imaging after PE to EP differentiation
Assay type: cell-based, human
Description: After three days of EP differentiation, at EP day 4, media were aspirated followed by fixation of the cells at room temperature for 30 min with 4% paraformaldehyde (VWR, 97.131.000). Cells were washed with PBS and permeabilized with 0.5% Triton X-100 (Sigma, 9002-93-1) for 10 min, washed and blocked in 0.5% TNB-buffer (Perkin Elmer) for 30 min at room temperature. Primary antibodies, sheep anti-NGN3 (R&D systems #AF3444) and rabbit anti-NKX2.2 (Sigma #HPA003468) were diluted 1:1000 and 1:500, respectively, in 0.1% Triton X-100 in PBS and added to each well for overnight incubation at 4° C. Cells were washed three times with PBS. […] The total cell number based in the DAPI counterstaining and the number of NGN3/NKX2.2 double positive cells was determined using InCell Developer Toolbox 1.8 (GE Healthcare). The fraction of NGN3/NKX2.2 double positive cells were quantified using the InCell developer toolbox software (GE Healthcare) and normalized to the combined protocol K&N (example 2) on each plate and the % effect was calculated (% effect NGN3/NKX2.2 double positive=((S−Sneg)/(|Spos−Sneg|))*100). […]
Imaging was performed using the InCell Analyzer 2000 (GE Healthcare). […] The total cell number based in the DAPI counterstaining and the number of NGN3/NKX2,2 double positive cells was determined using InCell Developer Toolbox 1.8 (GE Healthcare). […]

`O=[N+]([O-])c1ccc(-c2nc(-c3ccc(F)cc3)c(-c3ccncc3)[nH]2)cc1` [PD169316] was tested, and the “% effect NGN3/NKX2.2 double positive cells” value was 154% and 152%.
